Measurements from PMC10362367 (Molecular Metabolism, 2023).

Target: human FLAG-CaMKK2 (Homo sapiens, UniProt Q96RR4)
Experiment: In vitro CaMKK2 activity assay
Type: biochemical
Details: CaMKK2 vs CaMKK1

inhibition of CaMKK2 more sensitive than CaMKK1: 2–3 fold
SMILES: O=C(O)c1ccc2c3c1cccc3c(=O)n1c3ccccc3nc21 [STO-609, 7-Oxo-7h-benzimidazo-[2,1-a]benz[de]isoquinoline-7-one-3-carboxylic acid]
